Values of other authors as cited in patent US20240024490A1 (published 2024).

System: ID-8
Conditions: read-out: ID-8 IC50; cited from earlier work

For `CN1CC[C@H](c2c(O)cc(O)c3c(=O)cc(-c4ccccc4Cl)oc23)[C@H](O)C1` [Flavopiridol (1), flavopiridol], the IC50 is listed as 7 nM.
